Source: article PMC11765717, “In Vitro Insights into Bacteriocin-Mediated Modulation of Chicken Cecal Microbiota” (International Journal of Molecular Sciences, 2025)

Experiments:
[1] = system: Salmonella enterica subsp. enterica serotype Newport ATCC 6962; test: Residual activity in cecal fermentation medium, agar well diffusion; settings: over the 24 h of fermentation; agar diffusion tests
[2] = system: chicken cecal microbiota; test: Batch fermentation of chicken cecal microbiota, 16S rRNA gene sequencing; assay type: cell-based, broiler chickens
[3] = system: Salmonella enterica subsp. enterica serotype Newport ATCC 6962

Q: How did the “Stability of inhibitory activity in batch fermentation, in words” value [1] turn out when O=C(O)c1cn(C2CC2)c2cc(N3CCNCC3)c(F)cc2c1=O [Ciprofloxacin] was run?
A: remained highly active

Q: And the “Relative abundance of Escherichia, in words” value [2]?
A: dropped

Q: What about the “Relative abundance of Gammaproteobacteria” value ([2]; at both concentrations) of the same compound?
A: 0.03

Q: What about the “Residual Activity 6 h” value [3] of the same compound?
A: +++ +++

Q: And the “Residual Activity 12 h” value [3]?
A: +++ +++
